Measured values taken from patent publication US9556179B2 (BRISTOL-MYERS SQUIBB COMPANY, priority 2012, dated 2017).

Chains of the proteins cited; added tags and fusions are not shown. Lines headed by an entry give the natural chain unless they say otherwise; changes in a name come on top.
UniProt P49674: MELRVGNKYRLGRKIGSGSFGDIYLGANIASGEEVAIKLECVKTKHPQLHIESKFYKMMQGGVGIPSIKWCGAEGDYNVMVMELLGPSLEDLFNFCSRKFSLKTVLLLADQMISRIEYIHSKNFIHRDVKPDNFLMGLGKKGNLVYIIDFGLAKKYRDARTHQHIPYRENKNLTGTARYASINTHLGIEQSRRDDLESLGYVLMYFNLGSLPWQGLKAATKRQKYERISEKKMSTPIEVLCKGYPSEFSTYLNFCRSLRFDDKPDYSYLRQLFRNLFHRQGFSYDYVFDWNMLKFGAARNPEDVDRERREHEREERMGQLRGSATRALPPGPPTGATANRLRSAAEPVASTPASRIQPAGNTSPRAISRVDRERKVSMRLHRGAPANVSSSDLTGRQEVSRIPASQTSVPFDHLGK
UniProt P48730: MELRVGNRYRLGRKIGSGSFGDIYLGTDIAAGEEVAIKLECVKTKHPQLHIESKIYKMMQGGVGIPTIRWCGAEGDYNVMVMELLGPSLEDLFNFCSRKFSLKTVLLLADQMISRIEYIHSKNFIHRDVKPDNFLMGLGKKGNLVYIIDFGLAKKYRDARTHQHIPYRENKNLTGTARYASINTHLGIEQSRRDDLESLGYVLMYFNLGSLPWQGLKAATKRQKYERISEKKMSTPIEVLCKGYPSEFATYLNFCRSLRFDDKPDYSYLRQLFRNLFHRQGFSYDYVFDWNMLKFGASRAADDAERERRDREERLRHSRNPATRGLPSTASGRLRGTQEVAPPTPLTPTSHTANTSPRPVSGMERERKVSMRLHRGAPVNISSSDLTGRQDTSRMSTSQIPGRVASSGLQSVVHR

Each compound was assayed against CK1ε (Homo sapiens (Human), UniProt P49674) (assay: CK1ε kinase assay (Caliper LABCHIP electrophoretic separation of fluoresceinated peptide substrate and product)). Conditions: 200 pM enzyme, 50 μM ATP, 22 hours at room temperature.
Type: biochemical
Protocol: (§1) CK1ε and CK1δ Kinase Assays
(§2) The kinase assay was performed in V-bottom 384-well plates. […] The reaction was incubated at room temperature for 22 hours and terminated by adding 45 μl of 35 mM EDTA to each sample. The reaction mixture was analyzed on the Caliper LABCHIP®3000 (Caliper, Hopkinton, Mass.) by electrophoretic separation of the unphosphorylated substrate and phosphorylated product. […] Compounds were dissolved at 10 mM in dimethylsulfoxide (DMSO) and evaluated at eleven concentrations. IC50 values were derived by non-linear regression analysis.
`O=C(Nc1cn2nc(-c3c(-c4ccc(F)cc4)nc4ccccn34)ccc2n1)C1CC1` [Compound 185, N-(6-(2-(4-fluorophenyl)imidazo[1,2-a]pyridin-3-yl)imidazo[1,2-b]pyridazin-2-yl)cyclopropanecarboxamide] showed an IC50 of 10.2 nM. In the case of `O=C(Nc1cn2nc(-c3c(-c4ccc(F)cc4)ncn3C3CCN(Cc4ncco4)CC3)ccc2n1)c1ccnc(F)c1` [Compound 29, 2-fluoro-N-(6-(4-(4-fluorophenyl)-1-(1-(oxazol-2-ylmethyl)piperidin-4-yl)-1H-imidazol-5-yl)imidazo[1,2-6]pyridazin-2-yl)isonicotinamide], the IC50 is reported as 0.676 nM. Compound `O=C(Nc1cn2nc(-c3c(-c4ccc(F)cc4)ncn3C3CCN(C(=O)C4CCC4)CC3)ccc2n1)c1ccnc(F)c1` [Compound 68, N-(6-(1-(1-(cyclobutanecarbonyl)piperidin-4-yl)-4-(4-fluorophenyl)-1H-imidazol-5-yl)imidazo[1,2-b]pyridazin-2-yl)-2-fluoroisonicotinamide] has an IC50 of 0.811 nM. Work on `O=C(Nc1cn2nc(-c3c(-c4ccc(F)cc4)ncn3C3CCN(C(=O)C4CC(F)(F)C4)CC3)ccc2n1)c1ccnc(F)c1` [Compound 67, N-(6-(1-(1-(3,3-difluorocyclobutanecarbonyl)piperidin-4-yl)-4-(4-fluorophenyl)-1H-imidazol-5-yl)imidazo[1,2-b]pyridazin-2-yl)-2-fluoroisonicotinamide] yielded an IC50 of 0.233 nM. `O=C(Nc1cn2nc(-c3c(-c4ccc(F)cc4)ncn3C3CCNCC3)ccc2n1)c1ccncc1` [Compound 1, N-(6-(4-(4-fluorophenyl)-1-(piperidin-4-yl)-1H-imidazol-5-yl)imidazo[1,2-b]pyridazin-2-yl)isonicotinamide] was tested, and the IC50 was 0.943 nM.

The compounds below were run against CK1δ (Homo sapiens (Human), UniProt P48730) (assay: CK1δ kinase assay (Caliper LABCHIP electrophoretic separation of fluoresceinated peptide substrate and product)). Conditions: 200 pM enzyme, 50 μM ATP, 22 hours at room temperature.
Type: biochemical
Protocol: as §1, §2
`O=C(Nc1cn2nc(-c3c(-c4ccc(F)cc4)ncn3C3CCN(C(=O)CC(F)(F)F)CC3)ccc2n1)c1cc(F)nc(F)c1` [Compound 94, 2,6-difluoro-N-(6-(4-(4-fluorophenyl)-1-(1-(3,3,3-trifluoropropanoyl)piperidin-4-yl)-1H-imidazol-5-yl)imidazo[1,2-b]pyridazin-2-yl)isonicotinamide] was tested, and the IC50 was 0.338 nM. `Cc1nc(-c2ccc(F)cc2)c(-c2ccc3nc(NC(=O)c4ccnc(N)c4)cn3n2)n1C` [Compound 323, 2-amino-N-(6-(4-(4-fluoro-phenyl)-1,2-dimethyl-1H-imidazol-5-yl)imidazo[1,2-b]pyridazin-2-yl)isonicotin-amide] showed an IC50 of 0.401 nM. Work on `Cc1nc(-c2ccc(F)cc2)c(-c2ccc3nc(NC(=O)c4cncnc4)cn3n2)n1C` [Compound 350, N-(6-(4-(4-fluorophenyl)-1,2-dimethyl-1H-imidazol-5-yl)imidazo[1,2-b]pyridazin-2-yl)-5-pyrimidinecarboxamide] yielded an IC50 of 0.343 nM. For `O=C(Nc1cn2nc(-c3c(-c4ccc(F)cc4)ncn3C3CCNCC3)ccc2n1)c1ccnc2ccccc12` [Compound 109, N-(6-(4-(4-fluorophenyl)-1-(piperidin-4-yl)-1H-imidazol-5-yl)imidazo[1,2-b]pyridazin-2-yl)quinoline-4-carboxamide], the IC50 was 0.557 nM. In the case of `CC(C)(C)OCCn1cnc(-c2ccc(F)cc2)c1-c1ccc2nc(NC(=O)c3ccnc(F)c3)cn2n1` [Compound 260, N-(6-(1-(2-tert-butoxyethyl)-4-(4-fluorophenyl)-1H-imidazol-5-yl)imidazo[1,2-b]pyridazin-2-yl)-2-fluoroisonicotinamide], the IC50 is reported as 0.403 nM. For `O=C(Nc1cn2nc(-c3c(-c4ccc(F)cc4)ncn3CC(O)CO)ccc2n1)c1ccnc(F)c1` (centres unmarked) [Compound 235, N-(6-(1-(2,3-dihydroxypropyl)-4-(4-fluorophenyl)-1H-imidazol-5-yl)imidazo[1,2-b]pyridazin-2-yl)-2-fluoroisonicotinamide, dimethyl-formamide], the IC50 was 0.295 nM. `O=C(Nc1cn2nc(-c3c(-c4ccc(F)cc4)ncn3C3CCN(Cc4ccc(O)nc4)CC3)ccc2n1)c1ccnc(F)c1` [Compound 30, 2-fluoro-N-(6-(4-(4-fluorophenyl)-1-(1-((6-hydroxypyridin-3-yl)methyl)piperidin-4-yl)-1H-imidazol-5-yl)imidazo[1,2-b]pyridazin-2-yl)isonicotinamide] gave an IC50 of 0.295 nM. In the case of `O=C(Nc1cn2nc(-c3c(-c4ccc(F)cc4)ncn3C3CCN(C(=O)c4cocn4)CC3)ccc2n1)c1ccnc(F)c1` [Compound 43, 2-fluoro-N-(6-(4-(4-fluorophenyl)-1-(1-(oxazole-4-carbonyl)piperidin-4-yl)-1H-imidazol-5-yl)imidazo[1,2-6]pyridazin-2-yl)isonicotinamide], the IC50 is reported as 0.234 nM. In the case of `Cc1nc(-c2ccc(F)cc2)c(-c2ccc3nc(NC(=O)c4ccno4)cn3n2)n1C` [Compound 387, N-(6-(4-(4-fluorophenyl)-1,2-dimethyl-1H-imidazol-5-yl)imidazo[1,2-b]pyridazin-2-yl)isoxazole-5-carboxamide], the IC50 is reported as 6.78 nM. In the case of `O=C(Nc1cn2nc(-c3c(-c4ccc(F)cc4)ncn3C3CCN(CCO)CC3)ccc2n1)c1ccnc2ccccc12` [Compound 111, N-(6-(4-(4-fluorophenyl)-1-(1-(2-hydroxyethyl)piperidin-4-yl)-1H-imidazol-5-yl)imidazo[1,2-b]pyridazin-2-yl)quinoline-4-carboxamide], the IC50 is reported as 0.233 nM. In the case of `Cc1nc(-c2ccc(F)cc2)c(-c2ccc3nc(NC(=O)c4cncn4C)cn3n2)n1C` [Compound 360, N-(6-(4-(4-fluorophenyl)-1,2-dimethyl-1H-imidazol-5-yl)imidazo[1,2-b]pyridazin-2-yl)-1-methyl-1H-imidazole-5-carboxamide], the IC50 is reported as 0.52 nM. `Cc1nnsc1C(=O)Nc1cn2nc(-c3c(-c4ccc(F)cc4)nc(C)n3C)ccc2n1` [Compound 351, N-(6-(4-(4-fluorophenyl)-1,2-dimethyl-1H-imidazol-5-yl)imidazo[1,2-b]pyridazin-2-yl)-4-methyl-1,2,3-thiadiazole-5-carboxamide] gave an IC50 of 0.534 nM. `O=C(Nc1cn2nc(-c3c(-c4ccc(F)cc4)ncn3C3COC3)ccc2n1)c1ccnc(F)c1` [Compound 239, 2-fluoro-N-(6-(4-(4-fluorophenyl)-1-(oxetan-3-yl)-1H-imidazol-5-yl)imidazo[1,2-b]pyridazin-2-yl)iso-nicotinamide] showed an IC50 of 0.547 nM. In the case of `Cc1nc(-c2ccc(F)cc2)c(-c2ccc3nc(NC(=O)c4ccncc4)cn3n2)n1C` [Compound 301, N-(6-(4-(4-Fluorophenyl)-1,2-dimethyl-1H-imidazol-5-yl)imidazo[1,2-b]pyridazin-2-yl)isonicotinamide], the IC50 is reported as 0.413 nM. In the case of `Cc1nocc1C(=O)N1CCC(n2cnc(-c3ccc(F)cc3)c2-c2ccc3nc(NC(=O)c4ccnc(F)c4)cn3n2)CC1` [Compound 63, 2-fluoro-N-(6-(4-(4-fluorophenyl)-1-(1-(3-methylisoxazole-4-carbonyl)piperidm-4-yl)-1H-imidazol-5-yl)imidazo[1,2-6]pyridazin-2-yl)isonicotinamide], the IC50 is reported as 0.239 nM. `Cc1cc(C(=O)Nc2cn3nc(-c4c(-c5ccc(F)cc5)nc(C)n4C)ccc3n2)n[nH]1` [Compound 401, N-(6-(4-(4-fluorophenyl)-1,2-dimethyl-1H-imidazol-5-yl)imidazo[1,2-b]pyridazin-2-yl)-5-methyl-1H-pyrazole-3-carboxamide] gave an IC50 of 13 nM. With `O=C(Nc1cn2nc(-c3c(-c4ccc(F)cc4)ncn3C3CCN(C(=O)OCCC(F)(F)F)CC3)ccc2n1)c1ccnc(F)c1` [Compound 83, 3,3,3-trifluoropropyl 4-(5-(2-(2-fluoroisonicotinamido)imidazo[1,2-b]pyridazin-6-yl)-4-(4-fluorophenyl)-1H-imidazol-1-yl)piperidine-1-carboxylate] the IC50 was 0.142 nM. With `Cc1nc(-c2ccc(F)cc2)c(-c2ccc3nc(NC(=O)c4nc[nH]n4)cn3n2)n1C` [Compound 368, N-(6-(4-(4-fluorophenyl)-1,2-dimethyl-1H-imidazol-5-yl)imidazo[1,2-b]pyridazin-2-yl)-1H-1,2,4-triazole-3-carboxamide] the IC50 was 4.86 nM.
